Literature values in paper PMC9143003, “Neutrophil Immunomodulatory Activity of Farnesene, a Component of Artemisia dracunculus Essential Oils” (Pharmaceuticals, 2022).

Test system: human neutrophils
Design: method as in PMID 27586050, PMID 25959257
Settings: previous analysis; cited from earlier work

Substance: (E/Z)-β-ocimene
- Effect on human neutrophil [Ca^2+]i (in words): no effect
